Earlier results, collected in article PMC3290704 (Journal of the American Chemical Society, 2012).

System: TAZ2
Details: chemical shift mapping

p53(14–28): p53(14–28) peptide used in earlier chemical shift mapping
binding region on TAZ2: hydrophobic surface at the interface between the α1, α2, and α3 helices
